The results in this text go back to PubChem BioAssay AID1745845 (National Center for Advancing Translational Sciences (NCATS), 2022).

This is a selection; strong and weak results do not stand in their true shares. Records with an inconclusive call do not appear. Activity calls are given as the source filed them. Calls come from the whole dose curve; as a rule, active = well fitted inhibition curve with a large enough effect; inconclusive = small, poorly fitted or top-dose-only effect; inactive = no such curve, though single readings can be large or run the other way.
% is set by controls: 0 for no effect and ±100 for the full control effect.

A short description of the assay: Primary qHTS for Inhibitors of ATXN expression. Note: nearly all actives have a fitted effect of over 55% in size. Particulars: HEK-293 ATXN2-luciferase reporter, luminescence, 24 h; at 57 µM (top of the series) unless noted.
Consider `CCCCCOc1ccc(NP(C)(=O)Oc2ccc(Cl)cc2Cl)cc1` (centres undefined), for which the activity change, negative = inhibition is inactive: -16.5%.
In the case of `Cc1c([N+](=O)[O-])cc([N+](=O)[O-])c(Br)c1[N+](=O)[O-]` it was inactive: 1.17%.
Turning to `CCN(CC)CCCOC(=O)C(O)(c1ccccc1)C1CCCCC1` (centres undefined), the activity change, negative = inhibition was inactive: -3.05%.
In the case of `CCOC(=O)c1ccc(NP(C)(=O)Oc2ccc(F)cc2)cc1` (centres undefined) it was inactive: 4.27%.
To `Cc1cccc([N+](=O)[O-])c1[N+](=O)[O-]` belongs inactive: -9.26% [at 116 µM]; to `CCOP(=O)(CC)Oc1ccc([N+](=O)[O-])cc1` (centres undefined), inactive: -17.3%; to `O=C(OCCN1CCN(CCOCc2ccccc2)CC1)C(O)(c1ccccc1)c1ccccc1`, inactive: 3.56%.
To `CP(=O)(Nc1ccccc1F)Oc1ccccc1` (centres undefined) belongs inactive: 1.23%; to `COc1ccccc1OP(C)(=O)Nc1ccc(C)cc1C` (centres undefined), inactive: 5.32%.
Take `CP(=O)(Nc1ccccn1)Oc1ccccc1` (centres undefined): the activity change, negative = inhibition is inactive: -5.9%.
In the case of `CCc1ccc(OP(C)(=O)O)cc1` it was inactive: 1.17%; in that of `Cc1c(NP(C)(=O)Oc2ccc(C(C)C)cc2)c(=O)n(-c2ccccc2)n1C` (centres undefined), inactive: -13.2%; in that of `CC1=C2[N-][C@@](C)([C@@H]3N=C(C(C)=C4N=C(C=C5N=C1[C@@](C)(CC(N)=O)[C@H]5CCC(N)=O)C(C)(C)[C@H]4CCC(N)=O)[C@](C)(CCC(=O)NC[C@@H](C)OP(=O)([O-])O[C@H]1[C@@H](O)[C@@H](n4cnc5cc(C)c(C)cc54)O[C@H]1CO)[C@H]3CC(N)=O)[C@@](C)(CC(N)=O)[C@@H]2CCC(N)=O.[C-]#N.[Co+3]`, inactive: -23.7% [at 25.6 µM].
In the case of `COc1ccc(OP(C)(=O)Nc2ccccn2)cc1` (centres undefined) it was inactive: -14.2%.
In the case of `CN(C)CCOC(=O)C(O)(c1ccccc1)C1CCCC1` (centres undefined) it was inactive: -3.23%.
For the compound `COc1ccccc1OP(C)(=O)Nc1ccc(Br)cc1` (centres undefined), the activity change, negative = inhibition is inactive: 11.2%.
For the compound `CP(=O)(OCCOc1ccccc1)OCCOc1ccccc1`, the activity change, negative = inhibition was inactive: -17.6%.
In the case of `CP(=O)(Nc1ccc(Cl)cc1Cl)Oc1ccccc1` (centres undefined), the activity change, negative = inhibition was inactive: -0.947%.
In the case of `CCCCCCCCCCCCCCCC1C[N+](C)(C)CCOP(C)(=O)O1` (centres undefined) it was inactive: -9.14%; in that of `COc1ccccc1OP(C)(=O)Nc1ccc(C)c(C)c1` (centres undefined), inactive: -10.3%.
In the case of `COc1ccc(OP(C)(=O)Nc2ccccc2Br)cc1` (centres undefined) it was inactive: 2.96%; in that of `Cc1cc(C)cc(OP(C)(=O)Nc2cccc(C(F)(F)F)c2)c1` (centres undefined), inactive: -29%; in that of `CCOC(=O)c1ccc(NP(C)(=O)Oc2ccc(Cl)cc2)cc1` (centres undefined), inactive: -1.94%.
On to `CP(=O)(OC12CC3CC(CC(C3)C1)C2)OC12CC3CC(CC(C3)C1)C2`, for which the activity change, negative = inhibition is inactive: -9.19%.
In the case of `CC(C)(C)c1ccc(OP(C)(=O)O)cc1` it was inactive: -1.5%.
In the case of `COc1ccccc1OP(C)(=O)Nc1ccccc1Br` (centres undefined) it was inactive: 14.2%.
With `CP(=O)(Nc1ccc(Cl)cc1)Oc1ccc(F)cc1` (centres undefined), the activity change, negative = inhibition is inactive: -14.4%.
To `OCCSCCO` belongs inactive: -0.313%; to `O=C(OCCCN1CCCC1)C(O)(c1ccccc1)C1CCCCC1` (centres undefined), inactive: -20.9%; to `COc1ccccc1OP(C)(=O)Nc1c(C)n(C)n(-c2ccccc2)c1=O` (centres undefined), inactive: 3.2%.
With `CCc1ccc(OP(C)(=O)Nc2cccnc2)cc1` (centres undefined), the activity change, negative = inhibition is inactive: -6.23%.
To `CP(=O)(Oc1ccccc1)N1CCOC1=O` (centres undefined) belongs inactive: 1.7%.
To `COc1ccc(OP(C)(=O)Nc2ccc(Br)cc2)cc1` (centres undefined) belongs inactive: 1.21%.
To `CCN(CC)CC(O)COC(=O)C(O)(c1ccccc1)C1CCCCC1` (centres undefined) belongs inactive: -15.3%.
